Source: patent US11071801B2, “Release of ClO2 gas from medical device packaging film” (priority 2015, dated 2021)

Assay type: physicochemical
Settings: 20 mL sealed vial, upper detection limit 240 ppm

## sodium chlorite [Sample 6]
After the fluorescent exposure, UV 254 nm for 15 seconds
  ClO2 concentration after UV (254 nm) light exposure: >240 ppm
Compact fluorescent light approx. 4.5 hours
  ClO2 concentration after fluorescent light exposure: 63 ppm
